## Measured affinities in a library of Ab-95 light chain variants

Reference: Engelhart et al. 2022, doi:10.1038/s41597-022-01779-4. File: FLAb, binding data.

Binding partner: SARS-CoV-2 spike HR2 peptide, sequence PDVDLGDISGINAS.

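The parent was found by panning a naive human phage display library on the peptide. The library (AAYL52) carries one to three amino acid substitutions per variant, with no insertions or deletions. The assay is AlphaSeq: two haploid yeast populations carry antibody and antigen on their surface. Binding brings cells together so that they mate, and sequencing counts the barcode pairs among the diploids. The ratio of observed to expected reads was calibrated, replicate by replicate, on BCL2-family standards whose Kd was known from biolayer interferometry. There are three technical replicates.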

Ab-95 is the parent antibody, in scFv form: VH, then a 15-residue (Gly4Ser)3 linker, then VL. The heavy chain is unchanged in all variants.
VH: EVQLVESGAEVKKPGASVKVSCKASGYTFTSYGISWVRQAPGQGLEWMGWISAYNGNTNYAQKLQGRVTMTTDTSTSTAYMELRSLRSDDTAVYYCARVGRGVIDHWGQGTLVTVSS
VL: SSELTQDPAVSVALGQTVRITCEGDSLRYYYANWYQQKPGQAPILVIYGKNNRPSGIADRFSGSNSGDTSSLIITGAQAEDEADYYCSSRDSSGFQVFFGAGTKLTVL

Variants are written as CDR1, CDR2 and CDR3 of the light chain (limits as in the source). Parent: EGDSLRYYYAN, GKNNRPS, SSRDSSGFQVF. The read-out is the apparent dissociation constant on a log10 scale (nM): the lower, the stronger. Averages over replicates are reported, and they cover detected replicates only. Where no diploid with the target was found in any replicate, the entry reads "no signal": below detection, most likely a poor binder, though not proof of it.

| CDR-L1 | CDR-L2 | CDR-L3 | mean, log10 nM | replicates with signal |
|---|---|---|---|---|
| EGDSLRYDNAN | AKNNRPS | SSRDSSGFQVF | 1.70 | 3/3 |
| EGLSLRYYYAN | GKNNRPS | SARDSFGFQVF | 3.31 | 3/3 |
| EGDSLHYYYAN | GFNFRPS | SSRDSSGFQVF | 4.24 | 2/3 |
| EGDSGRYYYTN | GKYNRPS | SSRDSSGFQVF | 3.49 | 2/3 |
| EGDYRRYYYAN | GKNNRPS | SSRDSSGFQVT | 3.70 | 2/3 |
| EGDSLRYYYAN | GKNNRPS | SKRDFSTFQVF | 2.18 | 3/3 |
| EGDSLRYYYAN | GKNNRPS | WSRDSSGFCVF | 2.93 | 3/3 |
| EGDSLRYYMAN | GKNNRPS | SSFDRSGFQVF | 1.91 | 3/3 |
| EGDMLRYEYAN | GKNNRPS | SSRDSSGIQVF | 1.86 | 3/3 |
| EGNSLRLYYAN | GKANRPS | SSRDSSGFQVF | 3.55 | 1/3 |
| EGDSIRYYYAN | GKNNRPS | SSRDSSGTQVF | 2.50 | 3/3 |
| EGDSLRYNEAN | GKNNRPS | SSRDSSGCQVF | 1.70 | 3/3 |
| EGDSLRYYYAN | GKNNRPS | SSRDSDGFGVF | 3.74 | 2/3 |
| KGDSLRYYPAN | GKNNRPF | SSRDSSGFQVF | 0.40 | 3/3 |
| EGDMLEVYYAN | GKNNRPS | SSRDSSGFQVF | 1.28 | 3/3 |
| EGDSLRYYYAN | GKNNRPS | SSRAPSGFLVF | 2.65 | 3/3 |
| EGESLRYYYAN | GKNNRRS | SSRDSSGFYVF | no signal | 0/3 |
| EGDSLRYYYAN | GKNARPI | SSRTSSGFQVF | 3.43 | 3/3 |
| EDDSLRYYYAN | GKNNRPS | SSDDESGFQVF | 3.93 | 2/3 |
| EGRSLRYYYAN | YKNRRPS | SSRDSSGFQVF | 3.79 | 1/3 |
| EGDSLRYYRAN | GKNNRPS | SSLDSPGFQVF | 4.38 | 2/3 |
| EGDSLRVYYAN | MKNNRPS | SSRDSSGFQVF | 4.04 | 1/3 |
| ESDDLRYYYAN | MKNNRPS | SSRDSSGFQVF | 3.87 | 2/3 |
| EGDSLRYYYAN | GKPNRPI | SSRDSSGFQVF | 4.31 | 3/3 |
| EGPVLRYYYAN | GKNNRPS | DSRDSSGFQVF | 5.60 | 1/3 |
| HGDSLRYYYAN | GKNNRPE | SSRDSSGFQVV | 2.32 | 3/3 |
| EGESLRKYYAN | GKNNRPS | SSRDSSGYQVF | 1.84 | 3/3 |
| EGMSLRYYYAQ | GKNNSPS | SSRDSSGFQVF | 3.09 | 3/3 |
| EGDSLRYYYAN | GKANRPE | SSRGSSGFQVF | 2.63 | 3/3 |
| EGDSVRYYYAN | GKNNRPS | SSRDRRGFQVF | no signal | 0/3 |
| EGDGLRYYYAN | GKNNRPS | SKWDSSGFQVF | no signal | 0/3 |
| YGDSLRYYPAF | GKNNRPS | SSRDSSGFQVF | 4.49 | 1/3 |
| EGDSMRYYYAN | GKHNQPS | SSRDSSGFQVF | 5.04 | 1/3 |
| EGDSERYYYAN | GKNNRPS | ESRDSSRFQVF | 3.40 | 2/3 |
| EGDSRRYYYAN | GKNNRPS | SSRDDSGFQVF | 1.89 | 3/3 |
| EGFSLRYYYAN | GKKNRPS | SSRDSSGFQVF | 3.87 | 1/3 |
| EGDSLRYYYAN | DKSNRPS | SSRKSSGFQVF | 3.22 | 1/3 |
| EGDSLRTLYAN | GKNNRPS | SSRDSSGGQVF | 3.77 | 2/3 |
| EGDSLRYYYAN | DKNNRPS | SSRDSSHAQVF | no signal | 0/3 |
| EGDSLRYYYAN | GKNNRPN | SSRNSSGFQVF | 1.98 | 3/3 |
| EGISLRYYYAN | GKNNRPS | SSRDSSGFLVF | 2.61 | 3/3 |
| EGDSLRYYYAM | GKNNRGS | SSRDSPGFQVF | 3.90 | 2/3 |
| EGNSLRYYYAN | PKNNRAS | SSRDSSGFQVF | 4.59 | 3/3 |
| EGDSYRYYYAN | GKNNRPS | YGRDSSGFQVF | 3.70 | 2/3 |
| EGDSLRYYYAN | GKTNRPS | SSRDSSGFPVH | 3.28 | 3/3 |
| EGDCLRYYYAN | VKNNRPS | SSRDSDGFQVF | no signal | 0/3 |
| EGDSLRYYRAN | GKNGRMS | SSRDSSGFQVF | 2.58 | 3/3 |
| EGISLRYYYAN | VKNNHPS | SSRDSSGFQVF | 3.07 | 1/3 |
| EGDSLRYYYAN | TKNNRPS | APRDSSGFQVF | 4.89 | 2/3 |
| EFDSLRYYYAN | GKNNRPM | SSRDSSGFQVF | 3.33 | 1/3 |
| EGDSLRFYYAN | GKNNRPS | SSDDSSGFQVF | 3.32 | 1/3 |
| DGDSLRYYYAR | GKWNRPS | SSRDSSGFQVF | no signal | 0/3 |
| PGDSLRYYYAN | GKNNRPS | SARDSSGGQVF | 2.37 | 3/3 |
| EGDSLRYAGAN | GKNNRPS | SSRDSAGFQVF | 1.70 | 3/3 |
| TGDSLRYYYAN | GKNNEPS | SSRDSSGLQVF | 3.05 | 1/3 |
| EGDMLRYYYAP | GKNNRPS | SRRDSSGFQVF | 2.51 | 3/3 |
| EGDSLRYYYQN | GKNNRPS | SSRDSGNFQVF | no signal | 0/3 |
| EGDSTRYYYAN | KKNNRPS | SSRDSSGFKVF | 2.52 | 2/3 |
| EGDSLRYYYAC | GKNNRPL | SSRDSSGFNVF | 3.92 | 1/3 |
| EGDSLHGYYAN | GKNNRPS | SSRDSQGFQVF | 2.82 | 3/3 |
| EGDSTRYYYAN | GKNNRPQ | SSRDSSGMQVF | 3.31 | 3/3 |
| EGDSLRYYYAN | GMNNRPG | SSRFSSGFQVF | 3.41 | 3/3 |
| EFDSMRYYYAN | GKNNTPS | SSRDSSGFQVF | 4.55 | 2/3 |
| EGDSLRYYYAN | LKLNRPS | SSVDSSGFQVF | no signal | 0/3 |
| EGDSLRYYYAN | FKNNRPS | SSHDSSYFQVF | no signal | 0/3 |
| EGDSLRYYYAN | GKNNRPS | SSRDHSIFQDF | 3.01 | 2/3 |
| EGDSLRYYYAN | GKSNRPS | SSRPPSGFQVF | 3.27 | 3/3 |
| EGDSLRYYYAN | GKNIRPS | VSRDSSGFQVF | 3.18 | 3/3 |
| EGDSLRYYYAN | GKNNRPS | STRDSSGFQEF | 3.16 | 2/3 |
| EGDSLRYYYAN | GKINRPS | SQRDSDGFQVF | 4.23 | 2/3 |
| EGDSLRYYYCN | GKNNRPS | SSRDYSGFQVF | 2.56 | 3/3 |
| EGDSLSYYYAN | GKNNRPD | LSRDSSGFQVF | no signal | 0/3 |
| EGDSLSYYYAN | GKYNRPS | SSRDSSGVQVF | no signal | 0/3 |
| EGDSVRYYYAN | GKNNRFS | ISRDSSGFQVF | 3.41 | 2/3 |
| EGDSLRYYYYN | GKDNRPS | SSRDVSGFQVF | 2.35 | 3/3 |

Three control strains display no target. For library AAYL52, 28% of the pairings with them gave a signal, with a median of 3.91 and one signal in twenty below 2.90, so weak values seen in few replicates may be background.